Assay results reported in ChEMBL document CHEMBL4725309, “Potent, non-covalent reversible BTK inhibitors with 8-amino-imidazo[1,5-a]pyrazine core featuring 3-position bicyclic ring substitutes” (Bioorg Med Chem Lett, 2020).

The chains behind the UniProt entries cited, without tags or fusion partners. Where a name states a change or a piece, a line headed by the entry shows the natural chain unless it says otherwise.
UniProt Q06187: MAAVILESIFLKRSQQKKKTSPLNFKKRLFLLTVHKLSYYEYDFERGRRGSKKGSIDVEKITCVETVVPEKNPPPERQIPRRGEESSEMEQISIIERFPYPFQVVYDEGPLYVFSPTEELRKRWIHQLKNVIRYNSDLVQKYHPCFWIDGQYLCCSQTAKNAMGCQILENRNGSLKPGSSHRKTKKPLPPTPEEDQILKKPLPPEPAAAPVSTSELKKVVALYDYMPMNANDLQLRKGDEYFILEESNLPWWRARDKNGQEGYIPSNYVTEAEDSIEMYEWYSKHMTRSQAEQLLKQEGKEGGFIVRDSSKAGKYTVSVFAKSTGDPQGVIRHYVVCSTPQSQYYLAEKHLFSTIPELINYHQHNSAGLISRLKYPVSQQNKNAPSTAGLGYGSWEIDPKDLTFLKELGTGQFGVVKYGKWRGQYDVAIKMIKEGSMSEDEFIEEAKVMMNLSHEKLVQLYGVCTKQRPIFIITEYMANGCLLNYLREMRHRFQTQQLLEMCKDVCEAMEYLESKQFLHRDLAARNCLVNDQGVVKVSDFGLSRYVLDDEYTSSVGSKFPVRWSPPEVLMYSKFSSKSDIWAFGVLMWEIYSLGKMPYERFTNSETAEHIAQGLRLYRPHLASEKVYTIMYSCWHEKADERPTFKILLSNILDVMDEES

Columns and labels:
[1] = molecular target: T1, Tyrosine-protein kinase BTK (Homo sapiens, UniProt Q06187); assay: Inhibition of recombinant full length BTK (unknown origin) expressed in baculovirus infected Sf9 cells using Biotin-EQEDEPEGDYFEWLE-NH2 peptide as substrate incubated for 60 mins followed by further incubation with substrate and ATP for 120 mins by TR-FRET assay
[2] = molecular target: T1, Tyrosine-protein kinase BTK; assay: Inhibition of BTK in human PBMC assessed as reduction in cell surface CD69 expression preincubated for 1 hr followed by stimulation with goat anti-human IgM F(ab')2 for 18 hrs by immunostaining analysis; type: tissue-based
[3] = molecular target: T1, Tyrosine-protein kinase BTK; assay: Inhibition of BTK in human whole blood assessed as reduction in cell surface CD69 expression preincubated for 1 hr followed by stimulation with anti-CD79b for 3 hrs by immunostaining analysis; type: tissue-based

## COc1cc(C(=O)Nc2cc(C(F)(F)F)ccn2)ccc1-c1nc([C@@H]2CC[C@H]3CCC(=O)N3C2)n2ccnc(N)c12
[1]
  IC50: 0.21 nM
[2]
  IC50: 17 nM
[3]
  IC50: 30 nM
